Assay [1] concerns HepG2. Briefly: Inhibition of lipid accumulation in oleic acid treated human HepG2 cells at 10 uM incubated for 24 hrs by Oil Red O staining based analysis. In kind it is functional, cell-based.
For assay [2], the target named is T1, Retinoic acid receptor RXR-alpha (Homo sapiens) (UniProt P19793).
T1 sequence (whole entry): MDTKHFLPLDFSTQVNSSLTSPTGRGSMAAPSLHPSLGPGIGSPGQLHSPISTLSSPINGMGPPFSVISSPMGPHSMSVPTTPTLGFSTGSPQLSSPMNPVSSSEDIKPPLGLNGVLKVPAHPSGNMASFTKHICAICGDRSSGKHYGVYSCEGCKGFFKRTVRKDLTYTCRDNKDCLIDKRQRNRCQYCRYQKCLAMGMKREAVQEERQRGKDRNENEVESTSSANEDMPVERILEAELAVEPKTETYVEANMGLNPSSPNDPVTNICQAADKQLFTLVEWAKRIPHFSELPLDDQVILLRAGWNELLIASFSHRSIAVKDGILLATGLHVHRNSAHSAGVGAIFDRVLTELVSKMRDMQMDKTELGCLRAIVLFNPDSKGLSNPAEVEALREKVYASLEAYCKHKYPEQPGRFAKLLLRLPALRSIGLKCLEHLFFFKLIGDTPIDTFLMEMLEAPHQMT
Nature of the assay: Agonist activity at GAL4 DBD fused recombinant RXR alpha LBD (unknown origin) expressed in HEK292T cells cotransfected with pG5 luciferase plasmid assessed as receptor transactivation at 1 to 20 uM incubated for 12 hrs by dual luciferase reporter assay. In kind it is cell-based. Particulars: HEK293T, dose 1-20 µM. Background: Reporter assays use an easily measured gene product as a stand-in for the process of interest.

The source made the active and inactive calls. No cut-off for these calls is given here.

With `Oc1ccc(/C=C/c2cc(O)cc(O)c2)cc1`, in assay [1], the inhibition entry was “Active”.
With `C/C=C/C=C/C(O)=C1/C(=O)[C@@]2(C)[C@H]3/C(=C(/O)CC/C=C/C)C(=O)[C@@]4(C)[C@@H]1[C@]1(C)O[C@@]4(O)[C@@]3(C)O[C@@]12O`, in assay [2], the result was inactive.
The same measure, in the same setting: to `C/C=C/C=C/C(O)=C1/C(=O)[C@@]2(C)[C@H]3\C(=C(O)/C=C/C=C/C)C(=O)[C@@]4(C)[C@@H]1[C@]1(C)O[C@@]4(O)[C@@]3(C)O[C@@]12O` belongs “inactive”.

Source of the values: ChEMBL document CHEMBL5344417.
